Laboratory results as given in ChEMBL document CHEMBL4270501, “Indole-fused azepines and analogues as anticancer lead molecules: Privileged findings and future directions” (Eur J Med Chem, 2017).

Chains of the proteins cited; added tags and fusions are not shown.
UniProt P06493, whole entry: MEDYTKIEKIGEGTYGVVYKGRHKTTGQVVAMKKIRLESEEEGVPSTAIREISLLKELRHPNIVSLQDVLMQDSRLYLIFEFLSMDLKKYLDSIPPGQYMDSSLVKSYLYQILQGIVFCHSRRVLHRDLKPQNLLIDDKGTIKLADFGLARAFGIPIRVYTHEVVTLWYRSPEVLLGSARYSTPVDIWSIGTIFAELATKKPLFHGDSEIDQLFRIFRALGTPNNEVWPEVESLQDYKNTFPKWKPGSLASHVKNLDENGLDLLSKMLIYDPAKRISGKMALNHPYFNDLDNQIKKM

Molecular target: Cyclin-dependent kinase 1/cyclin B1 (Homo sapiens, UniProt P06493)
Test: Inhibition of GST-tagged CDK1/cyclin B (unknown origin) expressed in Escherichia coli

Q: How did the pIC50 turn out when `O=C1Cc2c([nH]c3ccc(Br)cc23)-c2sccc2N1` was run?
A: Its pIC50 is 6.22.

pIC50: −log10 of the molar value.
